This passage reports solubility results from patent US20070110901A1, “Method for identifying weakly binding molecule fragments having ligand properties, whereby the molecule fragments are applied in the form of microdrops of a corresponding solution to the crystal” (Proteros Biostructures GMBH, priority 2003, published 2007).

Each structure is given as a SMILES string.

A short description of the data set: physchem. Particulars: 50% DMSO, aqueous with cosolvent or surfactant or cyclodextrin.

As usually defined, the solubility is the concentration that dissolves in the medium under given conditions. Read a high solubility as a readily soluble substance. In turn, `O=S(=O)(F)Cc1ccccc1` [PMSF, phenylmethylsulfonyl fluoride] came in with a solubility of no less than 10 mM.
